Data: paper PMC9186491, “Novel Small Molecule Tyrosine Kinase 2 Pseudokinase Ligands Block Cytokine-Induced TYK2-Mediated Signaling Pathways” (Frontiers in Immunology, 2022)

Legend:
[1] = system: JAK1-dependent IL6-induced phosphorylation of STAT3 (Tyr705) in TF1 cells; assay: JAK cellular selectivity assay, IL6-pSTAT3 (JAK1); format: cell-based; conditions: Homo sapiens, TF-1, read-out: JAK Cellular Selectivity (IC50) IL6-pSTAT3 (JAK1)
Description: (§1) The cells were then ready for the assay after incubating for 2 hours in a humidified, 5% CO2 cell culture incubator at 37°C. […] The curve fit was generated, and statistical analysis was performed using GraphPad Prism. IC50 values were derived by non-linear regression analysis and defined as the compound concentration at which the response level was reduced to half of its maximum relative to a DMSO control.

[2] = system: JAK1/3-dependent IL2-induced phosphorylation of STAT5 (Tyr694/699) in Kit225 cells; assay: JAK cellular selectivity assay, IL2-pSTAT5 (JAK1/3); format: cell-based; conditions: Homo sapiens, KIT225, read-out: JAK Cellular Selectivity (IC50) IL2-pSTAT5 (JAK1/3)
Description: as §1

SMILES: Cn1cc(Nc2nccc(N3C[C@H]4CC[C@@H](C3)N4C(=O)[C@@H]3CC3(F)F)n2)cn1 [Brepocitinib, reference compound]
- IC50 [1]: 54 ± 55 nM
- IC50 [2]: 62 ± 41 nM
